This passage reports outcome and AC50 results from PubChem BioAssay (EPA / NIEHS).

By UniProt entry, the sequences of proteins in these tests, tags left out.
UniProt P16581, whole entry: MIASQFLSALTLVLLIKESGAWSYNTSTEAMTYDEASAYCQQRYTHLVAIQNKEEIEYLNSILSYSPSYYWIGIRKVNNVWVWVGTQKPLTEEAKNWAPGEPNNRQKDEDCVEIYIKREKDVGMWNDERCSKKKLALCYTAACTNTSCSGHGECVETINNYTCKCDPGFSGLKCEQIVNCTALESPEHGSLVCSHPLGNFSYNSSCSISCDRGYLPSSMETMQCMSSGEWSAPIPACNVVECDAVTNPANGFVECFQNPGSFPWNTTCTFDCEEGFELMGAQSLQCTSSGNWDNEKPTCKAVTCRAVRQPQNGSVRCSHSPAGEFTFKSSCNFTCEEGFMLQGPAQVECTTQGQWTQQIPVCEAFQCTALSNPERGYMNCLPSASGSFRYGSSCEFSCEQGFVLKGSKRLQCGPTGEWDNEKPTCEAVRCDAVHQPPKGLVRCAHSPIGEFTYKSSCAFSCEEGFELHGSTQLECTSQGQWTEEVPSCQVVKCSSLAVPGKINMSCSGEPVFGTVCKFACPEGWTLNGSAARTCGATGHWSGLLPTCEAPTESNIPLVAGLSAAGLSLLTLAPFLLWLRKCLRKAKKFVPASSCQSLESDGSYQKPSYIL

Test [1] in a line: BSK_hDFCGF_SRB: Viability Assessment in the BioMAP Diversity Plus: hDFCGF Assay (AID 2283061).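 Further: cells exposed to compound for 24 h before the read.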 The following applies: primary human foreskin fibroblasts. In outline:
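Primary human foreskin fibroblasts; 24 h post-dose; fixed 10% TCA, stained 0.1% SRB, A560 read; total protein as overt cytotoxicity measure; curves fit bidirectionally vs DMSO control.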

Read-out in test [2]: TIMP metallopeptidase inhibitor 1 (TIMP1), TIMP1 (gene 7076)
In words: BSK_hDFCGF_TIMP1: BioMAP Diversity Plus: hDFCGF Assay for TIMP metallopeptidase inhibitor 1 (TIMP1) Biomarker Activity (AID 2283062). The following applies: actives raise or lower the signal; primary human foreskin fibroblasts. In outline:
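ELISA readout of TIMP-1 from human dermal foreskin fibroblast cultures 24 h post-dosing. Curves were fitted in both directions against DMSO baseline, with SRB total-protein staining in parallel cultures as a cytotoxicity check.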

Read-out in test [3]: Monokine induced gamma interferon (MIG), CXCL9 (gene 4283)
Kind of test: BSK_hDFCGF_MIG: BioMAP Diversity Plus: hDFCGF Assay for Monokine induced gamma interferon (MIG) Biomarker Activity (AID 2283063). The following applies: actives raise or lower the signal; primary human foreskin fibroblasts. In outline: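 Fibroblasts (human foreskin, primary) dosed, 24 h, MIG by ELISA; fit bidirectional vs DMSO.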

Read-out in test [4]: Matrix Metallopeptidase 1 (MMP1), MMP1 (gene 4312)
In words: BSK_hDFCGF_MMP1: BioMAP Diversity Plus: hDFCGF Assay for Matrix Metallopeptidase 1 (MMP1) Biomarker Activity (AID 2283064). The conditions noted are these: actives raise or lower the signal; primary human foreskin fibroblasts. In outline: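 Primary human foreskin fibroblasts in the hDFCGF system were dosed with test chemical, and MMP1 was measured by ELISA 24 h later. Values come from bidirectional curve fitting against the DMSO baseline.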

Read-out in test [5]: Vascular cell adhesion molecule 1 (VCAM1), VCAM1 (gene 7412)
Kind of test: BSK_hDFCGF_VCAM1: BioMAP Diversity Plus: hDFCGF Assay for Vascular cell adhesion molecule 1 (VCAM1) Biomarker Activity (AID 2283065).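 On AC50: VCAM-1 protein level quantified by ELISA after 24 h chemical exposure.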 The following applies: actives raise or lower the signal; primary human foreskin fibroblasts. The method in brief: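 ELISA read-out of VCAM-1 on human skin fibroblasts, 24 h post-dose; gain or loss of signal fitted bidirectionally against DMSO baseline.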

Read-out in test [6]: Plasminogen activator inhibitor-1 (PAI1), SERPINE1 (gene 5054)
In words: BSK_hDFCGF_PAI1: BioMAP Diversity Plus: hDFCGF Assay for Plasminogen activator inhibitor-1 (PAI1) Biomarker Activity (AID 2283066). The conditions noted are these: actives raise or lower the signal; primary human foreskin fibroblasts. In outline:
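PAI-1 levels, determined by ELISA, served as the endpoint in human foreskin fibroblast cultures exposed to compound for 24 h, with DMSO as baseline.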

Read-out in test [7]: Intercellular Adhesion Molecule 1 (ICAM1), ICAM1 (gene 3383)
In words: BSK_KF3CT_ICAM1: BioMAP Diversity Plus: KF3CT Assay for Intercellular Adhesion Molecule 1 (ICAM1) Biomarker Activity (AID 2283067). The conditions noted are these: actives raise or lower the signal; primary human keratinocytes with fibroblasts. In outline:
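ELISA readout of ICAM-1; KF3CT human skin co-culture (keratinocytes + foreskin fibroblasts), 24 h post-dose; gain/loss fit vs DMSO baseline.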

Read-out in test [8]: Interferon-gamma inducible Protein 10 (IP10), CXCL10 (gene 3627)
In words: BSK_KF3CT_IP10: BioMAP Diversity Plus: KF3CT Assay for Interferon-gamma inducible Protein 10 (IP10) Biomarker Activity (AID 2283068). The conditions noted are these: actives raise or lower the signal; primary human keratinocytes with fibroblasts. The method in brief: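 ELISA read-out of IP-10 after 24 h chemical dosing of human skin primary co-culture (keratinocytes, foreskin fibroblasts). Gain or loss of signal relative to DMSO, bidirectional curve fit.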

Test [9] can be described thus: BSK_KF3CT_SRB: Viability Assessment in the BioMAP Diversity Plus: KF3CT Assay (AID 2283069).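 Further: total protein by sulforhodamine B staining as a cytotoxicity measure; read 24 h after compound addition.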 The conditions noted are these: primary human keratinocytes with fibroblasts. The method in brief:
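Human primary keratinocyte plus foreskin fibroblast co-culture exposed to chemicals for 24 h. Total protein measured by 0.1% sulforhodamine B staining after 10% TCA fixation, read at 560 nm; bidirectional fitting versus DMSO baseline.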

Read-out in test [10]: Interleukin-1 alpha (IL1a), IL1A (gene 3552)
Kind of test: BSK_KF3CT_IL1a: BioMAP Diversity Plus: KF3CT Assay for Interleukin-1 alpha (IL1a) Biomarker Activity (AID 2283070). The following applies: actives raise or lower the signal; primary human keratinocytes with fibroblasts. In outline: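 Human keratinocyte plus foreskin fibroblast primary co-culture, sampled 24 h after chemical dosing. IL-1a measured by ELISA; responses fitted bidirectionally against DMSO baseline (negative control), so gain or loss of signal both count.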

Read-out in test [11]: TIMP metallopeptidase inhibitor 2 (TIMP2), TIMP2 (gene 7077)
In words: BSK_KF3CT_TIMP2: BioMAP Diversity Plus: KF3CT Assay for TIMP metallopeptidase inhibitor 2 (TIMP2) Biomarker Activity (AID 2283071). The following applies: actives raise or lower the signal; primary human keratinocytes with fibroblasts. In outline: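 Keratinocyte–fibroblast co-culture, 24 h exposure; TIMP-2 ELISA, DMSO-normalised bidirectional fit. Parallel SRB (0.1%, TCA-fixed, 560 nm) total-protein staining gauges cytotoxicity.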

Read-out in test [12]: Transforming growth factor beta 1 (TGFb1), TGFB1 (gene 7040)
In words: BSK_KF3CT_TGFb1: BioMAP Diversity Plus: KF3CT Assay for Transforming growth factor beta 1 (TGFb1) Biomarker Activity (AID 2283072). The conditions noted are these: actives raise or lower the signal; primary human keratinocytes with fibroblasts. The method in brief:
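Signal changes in either direction, relative to DMSO, define activity here. TGF-b1 is read by ELISA from a human keratinocyte-fibroblast co-culture 24 h post-dose.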

Read-out in test [13]: C-C motif chemokine 2 (Homo sapiens) (UniProt P13500)
In words: BSK_KF3CT_MCP1: BioMAP Diversity Plus: KF3CT Assay for Monocyte Chemoattractant Protein 1 (MCP1/CCL2) Biomarker Activity (AID 2283073). The conditions noted are these: actives raise or lower the signal; primary human keratinocytes with fibroblasts. The method in brief: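 KF3CT skin co-culture (keratinocytes/foreskin fibroblasts), 24 h post-dose; MCP-1 by ELISA; gain/loss of signal fit bidirectionally vs DMSO baseline.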

Read-out in test [14]: Matrix Metallopeptidase 9 (MMP9), MMP9 (gene 4318)
Kind of test: BSK_KF3CT_MMP9: BioMAP Diversity Plus: KF3CT Assay for Matrix Metallopeptidase 9 (MMP9) Biomarker Activity (AID 2283074). The following applies: actives raise or lower the signal; primary human keratinocytes with fibroblasts. The method in brief: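 Keratinocyte plus foreskin fibroblast human primary skin co-culture was dosed with chemical and MMP-9 was quantified by ELISA 24 h later. Bidirectional curve fitting used DMSO as negative control and activity baseline.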

Read-out in test [15]: urokinase plasminogen activator (uPA), PLAU (gene 5328)
In words: BSK_KF3CT_uPA: BioMAP Diversity Plus: KF3CT Assay for urokinase plasminogen activator (uPA) Biomarker Activity (AID 2283075). The conditions noted are these: actives raise or lower the signal; primary human keratinocytes with fibroblasts. In outline: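 Human keratinocyte plus foreskin fibroblast primary co-culture exposed to chemical for 24 h. uPA levels were quantified by ELISA, and activity was fitted bidirectionally against a DMSO negative-control baseline.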

Read-out in the next test: CD40, CD40 (gene 958)
Kind of test: BSK_LPS_CD40: BioMAP Diversity Plus: LPS Assay for CD40 Biomarker Activity (AID 2283076). The conditions noted are these: actives raise or lower the signal; primary human HUVEC with PBMC. The method in brief:
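ELISA readout of CD40 in HUVEC/PBMC co-culture (BSK_LPS system), 24 h post-dosing; bidirectional curve fit, DMSO baseline; parallel SRB total-protein staining for cytotoxicity.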

Read-out in test [16]: E-selectin (Homo sapiens) (UniProt P16581)
Kind of test: BSK_LPS_Eselectin: BioMAP Diversity Plus: LPS Assay for Eselectin Biomarker Activity (AID 2283077). The conditions noted are these: actives raise or lower the signal; primary human HUVEC with PBMC. In outline: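 ELISA readout of E-selectin, 24 h post-dose, HUVEC + PBMC co-culture (LPS system). Gain or loss of signal vs DMSO baseline, bidirectional fit.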

Read-out in test [17]: Interleukin-8 (IL8), CXCL8 (gene 3576)
In words: BSK_LPS_IL8: BioMAP Diversity Plus: LPS Assay for Interleukin-8 (IL8) Biomarker Activity (AID 2283078). The conditions noted are these: actives raise or lower the signal; primary human HUVEC with PBMC. In outline:
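HUVEC + PBMC co-culture, LPS-activated; test chemicals dosed, IL-8 read by ELISA at 24 h. Bidirectional curve fit vs DMSO baseline (gain or loss of signal).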

Test [18] is described as follows: BSK_LPS_SRB: Viability Assessment in the BioMAP Diversity Plus: LPS Assay (AID 2283079).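 Further: total protein by sulforhodamine B absorbance as a cytotoxicity measure; measured one day after compound addition.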 The conditions noted are these: primary human HUVEC with PBMC. In outline: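 HUVEC + PBMC co-culture, LPS-stimulated; compound 24 h. 10% TCA fix, 0.1% SRB stain, A560. Bidirectional fit vs DMSO.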
Read-out in test [19]: Interleukin-1 alpha (IL1a), IL1A (gene 3552)
In words: BSK_LPS_IL1a: BioMAP Diversity Plus: LPS Assay for Interleukin-1 alpha (IL1a) Biomarker Activity (AID 2283080). The conditions noted are these: actives raise or lower the signal; primary human HUVEC with PBMC. The method in brief:
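HUVEC/PBMC co-culture, LPS system; 24 h after dosing; IL-1a by ELISA; gain or loss of signal fitted bidirectionally vs DMSO baseline.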

Broadly, the AC50 is the midpoint of the concentration-response curve, whichever way the signal moves.

The list shows a part of the results, in another mix than the full data. Calls of active or inactive are those of the source. How the source made its calls: active means hit-call score of the fitted dose curve at least 0.9, where 1 is the maximum; inactive means score below 0.9.

Consider `Cc1ccc([N+](=O)[O-])cc1[N+](=O)[O-]`, for which the result in test [1], in test [2], in [3], in test [4], in test [5] and in test [6] was inactive. For the same compound, the outcome in test [7], in [8], in test [9], in [10], in test [11] and in [12] was inactive. In addition, the outcome was “inactive” in [13]; “inactive” in [14]; “inactive” in [15]; “inactive” in the test with CD40, CD40 (gene 958); “inactive” in [16]; “inactive” in test [17]. Also, the outcome in test [18] and in [19] was inactive.
As for `CC(C)OP(C)(=O)OC(C)C`, the result in [1], in test [2], in [3], in test [4], in test [5] and in test [6] was inactive. For the same compound, the result in test [7], in test [8], in [9], in [10], in [11] and in test [12] was inactive. Moreover, the outcome in [13] is “inactive”; in test [14], “inactive”; in [15], “inactive”; in the test with CD40, CD40 (gene 958), “inactive”; in test [16], “inactive”; in test [17], “inactive”. Besides, the result in test [18] and in test [19] was inactive.
Turning to `Cc1cccc([N+](=O)[O-])c1[N+](=O)[O-]`, the result in test [1], in test [2], in [3], in test [4], in test [6] and in test [7] was inactive. Further, the outcome in [8], in test [9], in [10], in [11], in test [12] and in test [13] was inactive. Also, the outcome in test [14] was “inactive”; in [15], “inactive”; with CD40, CD40 (gene 958) it was “inactive”; in [16] it was “inactive”; in [17], “inactive”; in test [18] it was “inactive”. For the same compound, in test [19], the result was inactive. Moreover, the AC50 in test [5] was active: 9.36 µM.
On to `Cc1ccc([N+](=O)[O-])c([N+](=O)[O-])c1`, for which the outcome in test [1], in test [7], in test [8], in test [9], in [10] and in test [11] was inactive. Moreover, the outcome in test [12] is “inactive”; in test [13], “inactive”; in test [14] it was “inactive”; in test [15], “inactive”; with CD40, CD40 (gene 958), “inactive”; in test [16], “inactive”. Also, the outcome in [17], in test [18] and in [19] was inactive. In addition, the AC50 in [2] is active: 5.54 µM; in test [3], active: 20 µM; in [4], active: 3.97 µM; in [5] it was active: 12.7 µM; in test [6], active: 3.97 µM.
`Cc1c([N+](=O)[O-])cccc1[N+](=O)[O-]`: the result in test [1], in test [2], in test [3], in [4], in test [5] and in [6] was inactive. In addition, the result in [7], in [8], in test [9], in [10], in test [11] and in test [12] was inactive. The outcome in test [13] was “inactive”; in test [14], “inactive”; in test [15], “inactive”; in the test with CD40, CD40 (gene 958), “inactive”; in test [16], “inactive”; in [17] it was “inactive”. In addition, the outcome in [18] and in test [19] was inactive.
Regarding `O=[N+]([O-])c1cccc([N+](=O)[O-])c1`, the result in [1], in [2], in [3], in test [4], in test [5] and in test [6] was inactive. Moreover, the result in test [7], in test [8], in test [9], in [10], in [11] and in [12] was inactive. Further, the outcome in [13] is “inactive”; in test [14] it was “inactive”; in [15], “inactive”; with CD40, CD40 (gene 958) it was “inactive”; in [16], “inactive”; in test [17], “inactive”. The outcome in test [18] and in [19] was inactive.
